{
  "source": "paper PMC5496796",
  "about": "(Clinical cancer research : an official journal of the …, 2017)",
  "tested_on": "patients with relapsed or refractory multiple myeloma",
  "conditions": "single agent ricolinostat, N=15",
  "data": [
    {"smiles": "O=C(CCCCCCNC(=O)c1cnc(N(c2ccccc2)c2ccccc2)nc1)NO", "note": "[ricolinostat]", "values": [
      {"measurement": "Diarrhea, Grade 3/4", "value": "0 (0) N (%)"},
      {"measurement": "Fatigue, Grade 3/4", "value": "0 (0) N (%)"}
    ]}
  ]
}
